Measurements published in article PMC3954981 (Bioorganic & medicinal chemistry, 2014).

Amino acid sequences for entries named in this document (tags omitted).
UniProt Q9UM07, whole entry: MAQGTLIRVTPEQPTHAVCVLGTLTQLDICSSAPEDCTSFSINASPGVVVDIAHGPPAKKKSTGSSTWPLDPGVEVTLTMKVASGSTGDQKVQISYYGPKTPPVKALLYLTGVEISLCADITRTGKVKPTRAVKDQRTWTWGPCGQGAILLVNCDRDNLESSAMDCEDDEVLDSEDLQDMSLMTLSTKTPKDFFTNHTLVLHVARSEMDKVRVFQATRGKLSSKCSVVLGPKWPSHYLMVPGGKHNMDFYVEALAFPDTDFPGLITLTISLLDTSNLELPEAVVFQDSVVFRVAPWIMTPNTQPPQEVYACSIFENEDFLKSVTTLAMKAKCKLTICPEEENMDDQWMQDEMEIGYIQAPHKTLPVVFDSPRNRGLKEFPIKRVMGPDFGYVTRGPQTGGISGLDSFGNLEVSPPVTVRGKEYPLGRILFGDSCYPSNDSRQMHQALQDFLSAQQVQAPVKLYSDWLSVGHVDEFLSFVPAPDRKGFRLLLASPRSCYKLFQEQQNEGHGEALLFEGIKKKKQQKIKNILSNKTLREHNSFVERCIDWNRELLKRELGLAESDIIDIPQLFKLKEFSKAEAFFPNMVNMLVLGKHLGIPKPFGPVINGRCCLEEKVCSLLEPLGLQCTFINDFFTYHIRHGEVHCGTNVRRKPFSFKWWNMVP
UniProt Q9UM07, whole entry C645A: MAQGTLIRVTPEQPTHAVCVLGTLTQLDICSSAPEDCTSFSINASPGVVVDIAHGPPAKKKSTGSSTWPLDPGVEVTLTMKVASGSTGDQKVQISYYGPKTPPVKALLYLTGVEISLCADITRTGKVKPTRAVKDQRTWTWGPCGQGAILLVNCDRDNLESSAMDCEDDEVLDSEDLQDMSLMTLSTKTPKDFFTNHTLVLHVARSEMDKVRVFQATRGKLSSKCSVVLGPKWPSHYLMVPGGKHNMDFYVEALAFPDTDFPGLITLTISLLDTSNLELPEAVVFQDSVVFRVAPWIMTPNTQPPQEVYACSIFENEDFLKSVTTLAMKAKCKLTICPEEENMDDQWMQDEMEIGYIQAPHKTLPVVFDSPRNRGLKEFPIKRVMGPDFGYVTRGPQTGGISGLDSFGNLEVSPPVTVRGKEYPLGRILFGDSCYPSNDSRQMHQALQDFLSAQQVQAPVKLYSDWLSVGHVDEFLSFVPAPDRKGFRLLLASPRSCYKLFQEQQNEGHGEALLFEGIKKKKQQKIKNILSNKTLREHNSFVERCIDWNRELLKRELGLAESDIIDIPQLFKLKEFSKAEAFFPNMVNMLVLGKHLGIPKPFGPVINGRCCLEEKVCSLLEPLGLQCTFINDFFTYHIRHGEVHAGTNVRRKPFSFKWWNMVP
UniProt Q9Y2J8, whole entry: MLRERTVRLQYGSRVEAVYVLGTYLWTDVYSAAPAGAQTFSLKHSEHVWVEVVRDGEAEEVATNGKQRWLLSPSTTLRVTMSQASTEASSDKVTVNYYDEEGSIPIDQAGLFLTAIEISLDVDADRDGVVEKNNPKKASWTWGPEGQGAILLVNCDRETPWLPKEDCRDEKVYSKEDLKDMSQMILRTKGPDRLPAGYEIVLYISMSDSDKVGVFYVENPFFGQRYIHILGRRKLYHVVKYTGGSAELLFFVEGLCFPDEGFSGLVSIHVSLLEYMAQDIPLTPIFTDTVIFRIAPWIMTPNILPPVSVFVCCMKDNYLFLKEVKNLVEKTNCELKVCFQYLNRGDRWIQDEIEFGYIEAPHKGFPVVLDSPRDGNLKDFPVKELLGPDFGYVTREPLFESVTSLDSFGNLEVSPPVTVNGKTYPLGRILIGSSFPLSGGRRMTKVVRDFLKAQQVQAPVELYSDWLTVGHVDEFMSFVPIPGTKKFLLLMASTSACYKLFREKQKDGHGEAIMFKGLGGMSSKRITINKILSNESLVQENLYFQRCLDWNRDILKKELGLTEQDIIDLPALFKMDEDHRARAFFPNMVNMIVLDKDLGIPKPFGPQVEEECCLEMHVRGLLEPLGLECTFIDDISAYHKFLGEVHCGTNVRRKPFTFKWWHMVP

Columns and labels:
Assay in all cases: MALDI-MS analysis of inhibitor-treated enzyme
Assay type in all cases: binding
WT-PAD4 = WT-PAD4 (Homo sapiens, UniProt Q9UM07); conditions: 1:10 enzyme:inhibitor, 1 h, WT-PAD4 3 μM
PAD4 C645A = PAD4 C645A (Homo sapiens, UniProt Q9UM07, C645A); conditions: 1:10 enzyme:inhibitor, 1 h, PAD4 C645A 5 μM
PAD2 = PAD2 (Homo sapiens, UniProt Q9Y2J8); conditions: 1:10 enzyme:inhibitor, 1 h, PAD2 3 μM

mass shift of WT-PAD4 (Δ Da) (WT-PAD4): 945 Da | mass shift of PAD4 C645A (Δ Da) (PAD4 C645A): 792 Da | mass shift of PAD2 (PAD2): 853 Da
Compound: NC1=CC(=O)c2ccc(-c3cccc(C(=O)O)n3)nc2C1=O [Compound 17]
